These are literature values, as cited in patent publication US20030035774A1, “Salt/ion pair medicinal aerosol formulation” (priority 2001, published 2003).

The conditions of data set [1]: aerosolized insulin delivered into the lung; multiple studies, results quite variable.

Read-outs that look alike come from different tables or passages of the source.

On to insulin, for which, in data set [1], the half-life is 15 to 25 min. Moreover, the bioavailability result (aerosolized insulin given peripherally into the lung of rabbits) was “over 50.7%” and the bioavailability (liquid insulin dripped into the central airways, rabbits) was 5.6%.

The term half-life denotes the time needed for the level to fall by half in the phase considered.
